Here are results for two substances from patent US6855687B2, “Stimulation of cartilage growth with agonists of the non-proteolytically activated thrombin receptor” (The Board of Regents The University of Texas System, priority 2000, dated 2005).

In assay [1] the target is thrombin receptor. Kind of assay: Specific binding of 125I thrombin to rat chondrocytes (Scatchard analysis). To be noted: 230,000 sites, read-out: affinity of high affinity sites. As to the method: Primary cultures of rat articular chondrocytes were isolated and prepared for in vitro analysis using established methods (see Kuettner, K E., et.al., J. Cell Biology 93: 743-750, 1982). Briefly, cartilage pieces were dissected from the shoulder of rats and the pieces were digested with trypsin for one hour and with collagenase for three hours in tissue culture medium (DMEM) at 37 C. with stirring. The cells were plated in flasks at high density (50,000 cells/cm sq.) and were culture in DMEM containing antibiotics an ascorbic acid at 37° C. in an atmosphere of 5% CO2.
The specific binding of ^125I thrombin to chondrocytes was carried out using established thrombin receptor binding assays as disclosed in U.S. Pat. No. 5,352,664 and Carney, D H and Cunningham, DD, Cell 15:1341-1349, 1978. Briefly, highly purified human thrombin was iodinated and added to cultures of chondrocytes with or without unlabeled thrombin to correct for nonspecific binding. By incubating cells with different concentrations of labeled thrombin and measuring the amount of thrombin bound to cells and the amount of free thrombin in the medium it is possible to estimate the number of receptors per cell and the affinity of thrombin for that binding site.

In assay [2] the target is high affinity thrombin binding sites on rat articular chondrocytes (rat). Put plainly: 125I-thrombin binding to cultured rat chondrocytes, Scatchard analysis, three experiments.
In assay [3] the target is very high affinity thrombin binding sites on rat articular chondrocytes (rat). The description is as above.

“And” between values parts separate entries of the source, which are not always exact repeats. Equal values may be shown once.

thrombin: in assay [1], the Kd was 0.027 µM and ~0.027 µM.

Take “highly purified human thrombin, iodinated (125I thrombin) (from UniProt P00734 44-622; P00734 44-622) (enzyme)”: the Kd in assay [2] was determined as 0.027 µM; in assay [3], 0.0001 µM. Besides, the binding sites per cell (sites per cell) is 230000 in assay [2] and 3000 in assay [3].
